Reference: US6596863B2, “Medical composition containing nitroetheneamine Derivative or salt there of as active constituent” (Ishihara Sangyo Kaisha, Ltd., priority 1998, dated 2003)

The chains behind the UniProt entries cited, without tags or fusion partners. Residues count along the entry.
UniProt P14780, 107-707 limits assumed: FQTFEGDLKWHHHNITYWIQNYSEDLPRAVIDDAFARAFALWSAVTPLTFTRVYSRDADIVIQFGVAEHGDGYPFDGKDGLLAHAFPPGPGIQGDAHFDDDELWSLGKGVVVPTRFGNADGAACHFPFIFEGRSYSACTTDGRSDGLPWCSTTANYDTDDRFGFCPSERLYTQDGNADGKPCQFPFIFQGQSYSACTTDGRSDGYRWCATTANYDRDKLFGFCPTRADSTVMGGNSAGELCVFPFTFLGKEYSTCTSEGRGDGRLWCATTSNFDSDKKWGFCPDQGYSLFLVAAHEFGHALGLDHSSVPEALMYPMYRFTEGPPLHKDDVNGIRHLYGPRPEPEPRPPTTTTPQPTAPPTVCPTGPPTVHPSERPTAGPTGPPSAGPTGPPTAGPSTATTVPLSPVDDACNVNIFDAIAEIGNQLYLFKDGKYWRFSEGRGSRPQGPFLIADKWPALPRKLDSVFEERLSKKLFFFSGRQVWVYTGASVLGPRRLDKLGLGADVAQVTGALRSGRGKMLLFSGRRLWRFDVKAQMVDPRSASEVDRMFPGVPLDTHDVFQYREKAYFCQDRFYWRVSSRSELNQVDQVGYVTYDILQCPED

Biological target: human MMP-9 (gelatinase B) (Homo sapiens, UniProt P14780)
Experiment: Inhibition activity against human MMP-9 (gelatinase B), fluorescent peptide substrate
Details: compounds of the formula (I)
Procedure: Human MMP-9 (gelatinase B) was purified by the following method from a culture supernatant of HT1080 cells (human fibrosarcoma).
2.5×10^6 HT1080 cells (ATCC CCL-121, purchased from Dainippon Seiyaku) were inoculated to a tissue culture dish (Code No. 3020-100, manufactured by Iwaki Glass Co., Ltd.) having a diameter of 10 cm and containing 10 ml of Dulbecco's Modified Eagle Medium (DME, No. D-5648, manufactured by Sigma Co.) containing 10% fetal bovine serum (FBS: REHATUIN™, Code No. 1020-90, manufactured by Intergen Co.) and cultured for 72 hours at 37° C. in an atmosphere comprising 5% of CO2 and 95% of air (Carbon Dioxide Incubator LNA-122D Model, manufactured by Tabai Co.). Then, the medium was changed to 10 ml of a DME culture medium containing no FBS, and phorbol 12-myristate 13-acetate (PMA, code No. 163-114851, manufactured by Wako Pure Chemical Industries, Ltd.) was added so that the final concentration became 10 ng/ml. Under the same conditions, the culturing was carried out for further 20 hours, whereupon the culture supernatant was collected and subjected to cool centrifugation at 4° C. for 5 minutes (cool centrifugal separator, manufactured by Hitachi) to remove cell fragments.
The pH of a conditioned medium (50 ml) containing MMP-9, thus prepared, was adjusted to 8.0 with 0.2N NaOH. […] Namely, the above-mentioned conditioned medium was passed through DEAE-Sephacel (manufactured by Pharmacia, gel volume: about 35 ml) preliminarily equilibrated with 50 mM Tris-HCl, pH 8.0 (A buffer), and a non-adsorption fraction was collected. Then, it was added to Dye Matrix Gel Green A (manufactured by Amicon Co., gel volume: about 6 ml) preliminarily equilibrated with 50 mM Tris-HCl, pH 7.5/10 MM CaCl2/0.05% Brij 35/0.02% NaN3 (B buffer) and thoroughly washed with the same buffer, whereupon the adsorbed enzyme was eluted with a 1M NaCl-containing B buffer. About 7.5 ml of the eluted fraction was diluted twice with the B buffer and added to Gelatin-Sepharose 4B (manufactured by Pharmacia, gel volume: about 6 ml) preliminarily equilibrated with a 0.5 M NaCl-containing B buffer. It was thoroughly washed with a 0.5M NaCl-containing B buffer, and eluted with the B buffer containing 10% of dimethylsulfoxide (DMSO) and 0.5 M of NaCl. 5.5 ml of the eluted fraction was dialyzed against a 0.1 M NaCl-containing B buffer to obtain 5.2 ml of a purified enzyme solution. The purified MMP-9 standard product was confirmed to have a single band of 92 kDa by a protein staining by SDS electrophoresis, and further, it was confirmed to have an adequate gelatin decomposing activity by gelatinzymography (carried out in accordance with a method by Howard E. W. et al; Journal Biological Chemistry, Vol. 266, 13064-13069, 1991) and to have an adequate substrate decomposing activity by the after-mentioned measurement employing a fluorescent peptide substrate specific to MMP.
The inhibition activity against human MMP-9 was measured by the following method in accordance with the method by C. G. Knight et al (FEBS Letters, Vol, 296, 263-266, 1992) employing a fluorescent peptide substrate (7-methoxycoumarin-4-yl)Acetyl-Pro-Leu-Gly-Leu-(3-[2,4-dinitrophenyl]—Ala—Arg-NH2, Code 3163-VC, manufactured by Peptide Institute, Inc.
Further, as the case requires, commercially available human MMP-9 purified enzyme (No. YU-18003, manufactured by Kabushiki Kaisha Yagai Chuo Kenkyusho; used in a final concentration of from 0.0125 to 0.025 unit/ml, No. CC079, manufactured by Chemicon International, Inc.; used in a final concentration of 0.2 μg/ml) was used for the tests. […]

IC50 (read-out: MMP-9 inhibition activities IC50, 1st, 1st measurement) [µM] | IC50 (read-out: MMP-9 inhibition activities IC50, 2nd, 2nd measurement) [µM] | IC50 (read-out: MMP-9 inhibition activities IC50, Average, average of 1st and 2nd (or single measurement)) [µM] | IC50 (read-out: MMP-9 inhibition activities IC50, 1st, 1st measurement, tested form: HCl) [µM] | IC50 (read-out: MMP-9 inhibition activities IC50, 2nd, 2nd measurement, tested form: HCl) [µM] | IC50 (read-out: MMP-9 inhibition activities IC50, Average, average of 1st and 2nd (or single measurement), tested form: HCl) [µM] | SMILES
35.8 | 16.9 | 26.4 |  |  |  | CCOC(=O)c1cnn(NNC(=C[N+](=O)[O-])Nc2ccccc2)c1N
 |  |  | 7.4 | 4.4 | 5.9 | CN(C)CCNC(=C[N+](=O)[O-])NNc1cc(C(F)(F)F)cc(Cl)n1

Read-outs that look alike come from different tables or passages of the source.
